Consider three molecules from PMC9015526, “Mass Spectrometric Assays Reveal Discrepancies in Inhibition Profiles for the SARS‐CoV‐2 Papain‐Like Protease” (Chemmedchem, 2022).

Assay [1] addresses T1, SARS‐CoV‐2 PL^pro (Severe acute respiratory syndrome coronavirus 2, UniProt P0DTD1).
Assay [2] deals with T1, SARS‐CoV‐2 PL^pro. As to the kind of experiment: biochemical. To be noted: SPE‐MS IC50.

Take `O=c1c2ccccc2[se]n1-c1ccccc1` [ebselen]: the “PL^pro inhibition in SPE‐MS assay (in words)” value (“PL^pro inhibition” below) at SARS‐CoV‐2 PL^pro [1] was “potently inhibit”.

What is called IC50 is the concentration needed to halve the response being measured. Regarding `Cc1coc2c1C(=O)C(=O)c1c-2ccc2c(C)cccc12` [tanshinone I], the “PL^pro inhibition” value on SARS‐CoV‐2 PL^pro [1] was “did not, at least efficiently, inhibit”. Moreover, on SARS‐CoV‐2 PL^pro [2], the IC50 is > 50 µM.

For `Cc1ccc(-n2sc3ccccc3c2=O)cc1` [PBIT, 2‐(para‐tolyl)benzo[d]isothiazol‐3(2H)‐one], the “PL^pro inhibition” value on SARS‐CoV‐2 PL^pro [1] is recorded as “inhibits PL^pro efficiently”.
